Measurements from US20170087120A1, “COMPOSITION FOR IMPROVING BIOAVAILBILITY AND EFFICACY OF TAXANE” (Florida A&M University, priority 2015, published 2017).

Test: in vitro
Conditions: human, Caco-2
Excerpt: In FIG. 1B, Caco-2 is colon carcinoma cells used to evaluate the permeability and efflux of drug in GI track.

efflux ratio: > 2
Compound: CC(=O)O[C@@]12CO[C@@H]1C[C@H](O)[C@@]1(C)C(=O)[C@H](O)C3=C(C)[C@@H](OC(=O)[C@H](O)[C@@H](NC(=O)OC(C)(C)C)c4ccccc4)C[C@@](O)([C@@H](OC(=O)c4ccccc4)[C@H]21)C3(C)C [DTX, docetaxel, reference compound]
